{"source": "patent US20190351069A1", "about": "“Coating of Nanoparticle Surfaces with Cyclopeptides for Improving Delivery of Agents Via the Oral Route” (Ruprecht-Karls-Universität Heidelberg, priority 2016, published 2019)", "key": {"[1]": {"assay": "Animal trial: liver enrichment of I-131 radiolabeled Myrcludex B after oral application", "format": "in vivo, male Wistar rats", "settings": "oral gavage, 0.5 MBq, rats sacrificed 3 hours after oral application", "protocol": "The animal study was performed according to local authorities using male Wistar rats with a body weight of about 200 to 250 g. In this study, the tyrosine-modified analogue of the lipopeptide Myrcludex B was labeled with ^131l and encapsulated by the surface-coated nanoparticles as described above. 3 hours after oral administration, the organ distribution was measured by direct counting of the radiolabeled sample. Briefly, three groups (n≥3) of Wistar rats were formed.\nPrior to 12 hours of the experiment, the rats were kept without food, but with free access to water. Oral application of the surface-coated nanoparticles and the free peptide drug took place by gavage. […] The rats were sacrificed 3 hours after oral application, the organ tissues were removed, weighed and the radioactivity was measured using a Berthold LB 951 G counter in comparison with standards. Due to the specific accumulation of Myrcludex B in the liver, the liver-associated activity was related to the total injected dose (ID) and expressed as a percentage of the total injected dose per gram of tissue (% ID/g). • Statistical Analyses […]"}, "[2]": {"settings": "Myrcludex B per se; cited from earlier work"}}}
{"substance": "Myrcludex B", "values": [{"measurement": "enrichment of Myrcludex B in the liver tissue", "setting": "[1]", "result": 0.33, "unit": "%ID/g"}, {"measurement": "oral bioavailability", "setting": "[2]", "result": "< 1", "unit": "%"}]}
